Results: patent publication US20250171459A1, “2-METHYL-4',5'-DIHYDROSPIRO[PIPERIDINE-4,7'-THIENO[2,3-C]PYRAN] DERIVATIVES AS INHIBITORS OF APOL1 AND METHODS OF USING SAME” (Vertex Pharmaceuticals Incorporated, priority 2022, published 2025)

Sequences of proteins named here, by UniProt entry; tags and fusion partners are left off.
UniProt O14791, whole entry S342G/I384M: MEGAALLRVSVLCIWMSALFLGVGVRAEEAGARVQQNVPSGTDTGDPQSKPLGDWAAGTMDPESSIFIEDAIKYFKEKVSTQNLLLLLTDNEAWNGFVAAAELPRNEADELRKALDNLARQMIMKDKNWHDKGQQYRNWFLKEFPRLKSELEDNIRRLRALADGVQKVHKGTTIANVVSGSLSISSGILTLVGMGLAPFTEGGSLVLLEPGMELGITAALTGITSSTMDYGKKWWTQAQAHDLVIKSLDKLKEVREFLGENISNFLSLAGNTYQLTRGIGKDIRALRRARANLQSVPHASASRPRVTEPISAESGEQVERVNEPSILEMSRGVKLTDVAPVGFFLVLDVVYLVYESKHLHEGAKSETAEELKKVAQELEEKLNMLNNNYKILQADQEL

Target: APOL1 (Homo sapiens, UniProt O14791)
Test: MultiTox-Fluor Multiplex Cytotoxicity Assay in tet-inducible APOL1 T-REx-HEK293 cells (cell rescue, ratio of dead to live cells)
Details: read-out: IP50 (i.e., IC50 for cell proliferation); tet-inducible transgenic APOL1 T-REx-HEK293 cell lines, 50 ng/mL tet, 24 hours

CC1COC2(CCN(Cc3cnn(C)c3)CC2)c2cc(Cl)sc21 (single isomer, unassigned)
IC50: 100 to 500 nM
